By IC50 is commonly meant the midpoint of a concentration-inhibition curve. Read a high IC50 as weaker potency in that assay.

Protein sequences, listed by entry. Tags and fused reporters are not part of them.
UniProt P32245, whole entry: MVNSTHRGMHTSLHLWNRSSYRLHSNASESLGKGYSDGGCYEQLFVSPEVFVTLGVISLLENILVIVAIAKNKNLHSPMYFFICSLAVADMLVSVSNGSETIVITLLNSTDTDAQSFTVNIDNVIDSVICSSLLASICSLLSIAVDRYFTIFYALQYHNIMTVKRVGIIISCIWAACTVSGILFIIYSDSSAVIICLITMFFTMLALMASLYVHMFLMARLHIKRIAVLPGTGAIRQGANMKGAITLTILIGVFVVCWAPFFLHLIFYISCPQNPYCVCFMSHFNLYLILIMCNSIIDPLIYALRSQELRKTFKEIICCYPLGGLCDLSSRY

One assay has as its target human MC4 receptor (Homo sapiens, UniProt P32245). Description: MC4 receptor binding experiment ([125I]Nle4-D-Phe7-α-MSH displacement). As to conditions: human MC4 receptor expressing HEK-293 cell membrane; [125I]Nle4-D-Phe7-α-MSH 0.2 nM, 25° C. As to the method:
The MC4 receptor binding experiment was performed according to the method described in Pharmacology & Toxicology, 79, 161-165, 1996. The human MC4 receptor expressing-cell membrane obtained by expressing the human MC4 receptor in a HEK-293 cell was purchased from Biolinks K.K. The cell membrane was homogenized with 50 mM tris hydrochloride buffer (pH 7.4) containing 2 mM ethylenediaminetetraacetic acid, 10 mM calcium chloride, and 100 μM phenylmethylsulfonyl fluoride. The homogenate was centrifuged at 48,000×g at 4° C. for 20 min. The sediment obtained by centrifugation was rehomogenized with the same buffer, and the homogenate was centrifuged at 48,000×g at 4° C. for 20 min. This procedure was repeated twice. The sediment was suspended in 50 mM tris hydrochloride buffer (pH 7.4) containing 2 mM ethylenediaminetetraacetic acid, 10 mM calcium chloride, 100 μM phenylmethylsulfonyl fluoride, and 0.1% bovine serum albumin at a protein concentration of 100 μg/ml, and the suspension was used as a crude membrane preparation for the binding experiment. The crude membrane preparation (0.25 ml, 25 μg protein) was reacted with [^125I]Nle^4-D-Phe^7-α-MSH (final concentration, 0.2 nM) at 25° C. for 120 min. After completion of the reaction, the reaction solution was filtered by suction, using a cell harvester for the receptor binding experiment, onto a GF/C glass fiber filter paper immersed in 50 mM tris hydrochloride buffer (pH 7.4) containing 0.5% bovine serum for 2 h. Radioactivity on the filter paper was measured using a γ counter. The quantity of binding in the presence of 1 μM Nle^4-D-Phe^7-α-MSH was obtained as nonspecific binding, and specific binding was obtained by deducting the nonspecific binding from the total quantity, binding in the absence of 1 μM Nle^4-D-Phe^7-α-MSH. The test drug was dissolved in 100% DMSO solution and added to the membrane preparation at the same time as [^125I]Nle^4-D-Phe^7-α-MSH. The IC50 value was obtained from the inhibition curve in the range of 10^−10 to 10^−5 M. The binding test results of representative compounds are shown in Table 21 as examples.
`Cc1cc2nc(N[C@@H]3CN(C(=O)Cc4ccc(OC(F)(F)F)cc4)C[C@H]3O)cc(N(C)C)c2s1` displayed an IC50 of 52 nM.

`CN(C)c1nc(N[C@H]2CCN(C(=O)Cc3ccc(OC(F)(F)F)cc3)C2)nc2cscc12` came in with a 50% inhibitory concentration (IC50) of 35 nM.

In the case of `Cc1cc(N2CCOCC2)cc(N[C@H]2CCN(C(=O)Cc3ccc(OC(F)(F)F)cc3)C2)n1`, the IC50 came out at 26 nM.

`CS(=O)(=O)N1CC[C@@H](Nc2cc(N[C@H]3CCN(C(=O)Cc4ccc(OC(F)(F)F)cc4)C3)nc3ccsc23)C1` had a half-maximal inhibitory concentration (IC50) of 23 nM.

Take `Cc1cc2nc(N[C@H]3CCN(C(=O)Cc4ccc(OC(F)(F)F)cc4)C3)cc(N(C)C)c2s1`: the IC50 worked out at 74 nM.

The compound `Cc1cc(N2CCC(S(C)(=O)=O)CC2)cc(N[C@H]2CCN(C(=O)Cc3ccc(OC(F)(F)F)cc3)C2)n1` yielded an IC50 of 30 nM.

`CO[C@@H]1CCN(c2cc(C)nc(N[C@H]3CCN(C(=O)Cc4ccc(OC(F)(F)F)cc4)C3)c2)C1` displayed an IC50 of 32 nM.

`CN(C)c1cc(N[C@H]2CCN(C(=O)Cc3ccc(OC(F)(F)F)cc3)C2)nc2cscc12` registered an IC50 of 49 nM.

The same assay, now with this note: human MC4 receptor expressing HEK-293 cell membrane; [125I]Nle4-D-Phe7-α-MSH 0.2 nM, 25° C.; tested form: 2HCl.
Compound `O=C(Cc1ccccc1-c1ccc(F)c(Cl)c1)N1CC[C@H](Nc2nc(N3CCNCC3)c3ccccc3n2)C1` had an IC50 of 3.8 nM.

Consider `O=C(Cc1ccc(OC(F)(F)F)cc1)N1CC[C@H](Nc2nc(N3CCNCC3)c3ccccc3n2)C1`, for which the IC50 amounted to 6.7 nM.

Regarding `Cc1cc(N2CCC(N)C2)nc(N[C@H]2CCN(C(=O)Cc3ccc(OC(F)(F)F)cc3)C2)n1` (stereo partly shown), the IC50 is 2.3 nM.

For the compound `CC(C(=O)N1CC[C@H](Nc2nc(N3CCNCC3)c3ccccc3n2)C1)c1ccc(Cl)cc1` (stereo partly shown), the IC50 turned out to be 16 nM.

With `O=C(Cc1ccccc1-c1ccc(F)c(F)c1)N1CC[C@H](Nc2nc(N3CCNCC3)c3ccccc3n2)C1`, the IC50 amounted to 5.1 nM.

The same assay, now with this note: human MC4 receptor expressing HEK-293 cell membrane; [125I]Nle4-D-Phe7-α-MSH 0.2 nM, 25° C.; tested form: HCl.
With `Cc1cc(N(C)C)nc(N[C@@H]2CN(C(=O)Cc3ccc(OC(F)(F)F)cc3)C[C@H]2O)n1` (relative stereo), the IC50 turned out to be 99 nM.

`O=C(Cc1ccc(OC(F)(F)F)cc1)N1CC[C@H](Nc2nc(N3CCOCC3)c3ccc(F)cc3n2)C1` yielded a half-inhibitory concentration (IC50) of 21 nM.

`CN(C)c1cc(N[C@H]2CCN(C(=O)Cc3ccc(OC(F)(F)F)cc3)C2)nc2ccccc12` yielded a 50% inhibitory concentration (IC50) of 28 nM.

With `C[C@@H]1CCC[C@H](C)N1c1nc(N[C@H]2CCN(C(=O)Cc3ccccc3-c3ccccc3)C2)nc2ccccc12`, the half-maximal inhibitory concentration (IC50) came to 180 nM.

Compound `Cc1cc(N2CCC(C(=O)N(C)C)CC2)nc(N[C@H]2CCN(C(=O)Cc3ccc(OC(F)(F)F)cc3)C2)n1` had an IC50 of 66 nM.

Still in this assay, the particulars now being: human MC4 receptor expressing HEK-293 cell membrane; [125I]Nle4-D-Phe7-α-MSH 0.2 nM, 25° C.; tested form: maleate.
In turn, `Cc1cc(NCCO)nc(N[C@H]2CCN(C(=O)Cc3ccc(OC(F)(F)F)cc3)C2)n1` had a concentration for half-maximal inhibition (IC50) of 60 nM.

On to `Cc1cc(N2CCC(C(N)=O)CC2)nc(N[C@H]2CCN(C(=O)Cc3ccc(OC(F)(F)F)cc3)C2)n1`, for which the IC50 is 30 nM.

Regarding `O=C(Cc1ccc(OC(F)(F)F)cc1)N1CC[C@H](Nc2nc(NCCO)c3cscc3n2)C1`, the IC50 was 24 nM.

Turning to `O=C(Cc1ccc(OC(F)(F)F)cc1)N1CC[C@H](Nc2nc(NCCO)c3sccc3n2)C1`, the IC50 came to 66 nM.

For the origin of these results see patent US8044068B2, “Aminopyrrolidine compound” (Taisho Pharmaceutical Co., Ltd, priority 2006, dated 2011).
